The record followed here is ChEMBL document CHEMBL4725222, “Advances in the Development of Phosphodiesterase-4 Inhibitors” (J Med Chem, 2020).

Protein sequences, listed by entry. Tags and fused reporters are not part of them. Lines headed by an entry give the natural chain unless they say otherwise; changes in a name come on top.
UniProt P27815: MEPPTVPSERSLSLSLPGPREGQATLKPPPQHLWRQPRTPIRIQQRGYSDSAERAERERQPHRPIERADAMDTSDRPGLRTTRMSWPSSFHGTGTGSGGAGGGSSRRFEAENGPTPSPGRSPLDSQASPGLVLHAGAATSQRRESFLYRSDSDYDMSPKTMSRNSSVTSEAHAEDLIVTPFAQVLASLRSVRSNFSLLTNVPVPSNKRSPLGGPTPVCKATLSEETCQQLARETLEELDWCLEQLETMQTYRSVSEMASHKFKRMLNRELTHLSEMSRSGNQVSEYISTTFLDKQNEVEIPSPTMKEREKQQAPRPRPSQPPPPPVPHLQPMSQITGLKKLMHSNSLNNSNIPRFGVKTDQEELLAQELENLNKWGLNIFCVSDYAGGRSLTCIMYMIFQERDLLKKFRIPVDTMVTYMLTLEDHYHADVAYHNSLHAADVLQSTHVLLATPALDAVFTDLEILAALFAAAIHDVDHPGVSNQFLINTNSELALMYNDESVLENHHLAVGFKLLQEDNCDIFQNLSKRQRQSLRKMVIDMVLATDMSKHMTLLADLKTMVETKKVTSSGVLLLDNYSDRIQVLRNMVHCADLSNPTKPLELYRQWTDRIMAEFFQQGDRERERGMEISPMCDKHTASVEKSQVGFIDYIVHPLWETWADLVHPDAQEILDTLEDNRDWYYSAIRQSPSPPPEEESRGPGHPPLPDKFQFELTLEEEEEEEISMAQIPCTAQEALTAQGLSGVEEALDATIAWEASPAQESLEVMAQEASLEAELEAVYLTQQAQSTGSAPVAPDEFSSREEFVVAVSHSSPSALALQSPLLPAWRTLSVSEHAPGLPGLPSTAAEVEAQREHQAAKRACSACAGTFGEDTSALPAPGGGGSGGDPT
UniProt Q08499: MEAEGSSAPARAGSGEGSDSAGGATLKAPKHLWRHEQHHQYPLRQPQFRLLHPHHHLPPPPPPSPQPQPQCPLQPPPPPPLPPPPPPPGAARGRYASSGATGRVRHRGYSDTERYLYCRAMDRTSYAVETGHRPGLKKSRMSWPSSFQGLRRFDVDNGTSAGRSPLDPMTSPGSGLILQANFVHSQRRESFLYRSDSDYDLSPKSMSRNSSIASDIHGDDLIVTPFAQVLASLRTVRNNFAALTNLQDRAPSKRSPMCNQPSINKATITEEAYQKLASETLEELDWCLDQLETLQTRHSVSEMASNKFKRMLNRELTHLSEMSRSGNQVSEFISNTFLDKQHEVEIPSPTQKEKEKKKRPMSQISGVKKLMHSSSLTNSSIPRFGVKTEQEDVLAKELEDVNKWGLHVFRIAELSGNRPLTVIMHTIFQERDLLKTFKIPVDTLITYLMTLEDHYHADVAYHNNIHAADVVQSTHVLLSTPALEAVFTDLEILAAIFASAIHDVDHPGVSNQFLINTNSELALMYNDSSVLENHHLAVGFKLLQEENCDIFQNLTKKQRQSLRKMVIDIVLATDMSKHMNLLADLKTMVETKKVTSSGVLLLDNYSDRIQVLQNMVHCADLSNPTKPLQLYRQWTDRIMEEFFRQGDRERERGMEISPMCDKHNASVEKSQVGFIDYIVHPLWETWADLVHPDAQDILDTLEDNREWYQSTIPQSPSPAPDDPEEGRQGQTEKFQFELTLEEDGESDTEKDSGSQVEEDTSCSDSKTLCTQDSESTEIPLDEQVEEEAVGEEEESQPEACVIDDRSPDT
UniProt Q07343: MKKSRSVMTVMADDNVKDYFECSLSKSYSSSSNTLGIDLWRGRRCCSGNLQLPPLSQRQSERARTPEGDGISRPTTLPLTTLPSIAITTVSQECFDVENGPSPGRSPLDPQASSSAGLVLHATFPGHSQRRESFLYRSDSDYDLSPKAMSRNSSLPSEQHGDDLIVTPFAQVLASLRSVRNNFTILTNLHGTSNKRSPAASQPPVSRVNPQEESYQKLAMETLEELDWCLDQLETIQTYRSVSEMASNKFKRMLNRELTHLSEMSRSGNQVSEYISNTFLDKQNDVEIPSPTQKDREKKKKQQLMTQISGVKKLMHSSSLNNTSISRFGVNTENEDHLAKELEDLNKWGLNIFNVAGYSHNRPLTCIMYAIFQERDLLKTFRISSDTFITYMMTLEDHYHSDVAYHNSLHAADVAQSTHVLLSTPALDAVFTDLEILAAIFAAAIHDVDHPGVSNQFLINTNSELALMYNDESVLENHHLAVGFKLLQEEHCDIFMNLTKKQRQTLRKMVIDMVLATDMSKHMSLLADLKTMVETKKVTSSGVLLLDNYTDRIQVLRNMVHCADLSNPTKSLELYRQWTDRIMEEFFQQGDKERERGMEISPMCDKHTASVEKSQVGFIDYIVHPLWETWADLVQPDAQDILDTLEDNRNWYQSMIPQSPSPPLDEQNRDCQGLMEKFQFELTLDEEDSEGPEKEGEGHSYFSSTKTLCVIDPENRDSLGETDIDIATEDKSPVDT
UniProt Q08493: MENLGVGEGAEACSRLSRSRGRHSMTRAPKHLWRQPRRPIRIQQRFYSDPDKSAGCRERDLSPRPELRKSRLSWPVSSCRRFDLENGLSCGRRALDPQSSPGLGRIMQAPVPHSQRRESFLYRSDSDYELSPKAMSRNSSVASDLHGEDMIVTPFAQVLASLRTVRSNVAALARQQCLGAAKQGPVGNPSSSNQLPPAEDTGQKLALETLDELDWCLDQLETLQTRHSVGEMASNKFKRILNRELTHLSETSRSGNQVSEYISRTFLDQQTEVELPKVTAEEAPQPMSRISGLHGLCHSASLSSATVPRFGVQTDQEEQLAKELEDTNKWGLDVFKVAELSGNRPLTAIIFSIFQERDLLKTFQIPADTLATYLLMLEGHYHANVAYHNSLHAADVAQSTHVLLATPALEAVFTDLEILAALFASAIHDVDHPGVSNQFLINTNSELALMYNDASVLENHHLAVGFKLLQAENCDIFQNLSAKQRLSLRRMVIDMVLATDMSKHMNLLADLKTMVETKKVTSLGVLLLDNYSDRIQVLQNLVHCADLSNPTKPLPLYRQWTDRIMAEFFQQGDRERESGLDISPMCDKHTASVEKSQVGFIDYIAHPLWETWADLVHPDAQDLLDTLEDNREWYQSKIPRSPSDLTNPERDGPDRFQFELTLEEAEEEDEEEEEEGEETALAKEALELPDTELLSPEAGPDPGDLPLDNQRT

In the test the target is Phosphodiesterase 4 (Homo sapiens, UniProt P27815+Q08499+Q07343+Q08493). In words: Inhibition of PDE4 (unknown origin) expressed in Saccharomyces cerevisiae using [3H] cAMP as substrate incubated for 1 hr by scintillation proximity assay. Background: Scintillation proximity formats need no separation of bound from free tracer.

A word on the IC50: it is the concentration that inhibits the measured activity by half.

In the case of `CCn1nc(-c2cccc(-c3cccc(C(=O)NCCCCCCCN(C)CCO)c3)c2)cc(NC(=O)Nc2c(Cl)cncc2Cl)c1=O`, the 50% inhibitory concentration (IC50) came to 0.03 nM.
